This note sets out measurements from patent US12649008B2, “Peptide receptor radionuclide therapy” (The Regents of the University of California, priority 2020, dated 2026).

Chains of the proteins cited; added tags and fusions are not shown. Residues count along the entry.
UniProt P06756, 31-1048: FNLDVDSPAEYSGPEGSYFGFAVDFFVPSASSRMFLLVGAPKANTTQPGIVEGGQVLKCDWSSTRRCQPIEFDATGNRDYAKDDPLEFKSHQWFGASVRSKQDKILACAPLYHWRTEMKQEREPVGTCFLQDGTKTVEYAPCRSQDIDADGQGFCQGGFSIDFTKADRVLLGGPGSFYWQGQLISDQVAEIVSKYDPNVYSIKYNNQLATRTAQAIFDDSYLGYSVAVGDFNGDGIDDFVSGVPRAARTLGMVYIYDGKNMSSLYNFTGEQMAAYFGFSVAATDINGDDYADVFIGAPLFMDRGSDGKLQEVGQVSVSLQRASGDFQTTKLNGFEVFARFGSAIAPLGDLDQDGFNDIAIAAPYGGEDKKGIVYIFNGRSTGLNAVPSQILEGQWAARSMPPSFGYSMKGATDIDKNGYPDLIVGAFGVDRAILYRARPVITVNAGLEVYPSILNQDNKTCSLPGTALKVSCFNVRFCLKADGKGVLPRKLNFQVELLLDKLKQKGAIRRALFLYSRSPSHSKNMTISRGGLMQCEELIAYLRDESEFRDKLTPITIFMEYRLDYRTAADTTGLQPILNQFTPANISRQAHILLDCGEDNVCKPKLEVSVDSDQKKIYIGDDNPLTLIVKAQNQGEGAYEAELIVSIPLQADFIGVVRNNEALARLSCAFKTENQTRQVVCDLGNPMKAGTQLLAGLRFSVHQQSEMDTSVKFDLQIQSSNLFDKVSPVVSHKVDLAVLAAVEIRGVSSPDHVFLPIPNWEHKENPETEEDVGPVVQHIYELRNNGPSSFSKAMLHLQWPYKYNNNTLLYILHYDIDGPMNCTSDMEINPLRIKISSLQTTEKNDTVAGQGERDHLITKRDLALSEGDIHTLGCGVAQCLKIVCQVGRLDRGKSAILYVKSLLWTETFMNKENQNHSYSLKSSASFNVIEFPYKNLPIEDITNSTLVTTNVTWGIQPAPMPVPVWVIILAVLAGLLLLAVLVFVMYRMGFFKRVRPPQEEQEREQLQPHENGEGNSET
UniProt P18564, 22-788: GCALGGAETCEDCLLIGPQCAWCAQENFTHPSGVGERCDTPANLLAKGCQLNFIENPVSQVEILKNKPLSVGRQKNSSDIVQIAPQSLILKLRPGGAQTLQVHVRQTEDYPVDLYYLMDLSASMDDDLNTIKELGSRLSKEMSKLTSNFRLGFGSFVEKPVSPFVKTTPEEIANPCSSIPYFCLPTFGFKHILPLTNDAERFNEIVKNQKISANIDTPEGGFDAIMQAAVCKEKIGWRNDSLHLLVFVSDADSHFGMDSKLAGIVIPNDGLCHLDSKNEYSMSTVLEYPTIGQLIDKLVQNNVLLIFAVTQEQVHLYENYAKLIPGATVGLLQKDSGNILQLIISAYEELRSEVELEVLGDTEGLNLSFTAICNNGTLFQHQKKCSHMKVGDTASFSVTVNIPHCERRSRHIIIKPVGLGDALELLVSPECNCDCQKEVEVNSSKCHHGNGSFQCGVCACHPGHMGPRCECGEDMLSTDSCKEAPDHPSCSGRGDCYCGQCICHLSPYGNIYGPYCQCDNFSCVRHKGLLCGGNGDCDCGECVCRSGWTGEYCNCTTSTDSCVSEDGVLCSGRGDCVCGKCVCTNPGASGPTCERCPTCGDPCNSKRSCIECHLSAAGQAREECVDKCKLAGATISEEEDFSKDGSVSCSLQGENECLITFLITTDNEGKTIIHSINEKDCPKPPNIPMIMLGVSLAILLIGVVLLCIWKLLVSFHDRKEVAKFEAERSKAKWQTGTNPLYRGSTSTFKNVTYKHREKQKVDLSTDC

Data set [1] concerns αvβ6 (+) BxPC-3 tumors. The data set is described as follows: In vivo targeted radionuclide therapy. More on the design: species or system mice. Here is the method: (§1) Female nu/nu nude mice (6-8 weeks old) were purchased from Charles River Laboratories (Wilmington, MA, USA) and handled according to the UC Davis Institutional Animal Care and Use Committee. BxPC-3 cells (5×10^6) in 100 μl 1:1 GFR-Matrigel: serum-free RPMI were implanted subcutaneously into the left shoulder flank and allowed to grow for approximately 2 weeks (therapy study) and 3 weeks (0.5-1 cm in diameter, for imaging and biodistribution studies). All cells were evaluated with flow cytometry before injection to confirm integrin expression levels. Food and water were available ad libitum.
For in vivo targeted radionuclide therapy, mice were implanted subcutaneously with BxPc-3 tumor cells 14 days before start of treatment. Mice were randomly chosen and divided into four treatment groups: Control Saline (Group 1, n=5); Control Peptide DOTA-ABM-5G (Group 2, n=6); 1×74 MBq [^177Lu]Lu DOTA-ABM-5G (Group 3, n=10); and 2×37 MBq [^177Lu]Lu DOTA-ABM-5G (Group 4, n=7). Average tumor volume at the start of the treatment was 14-218 mm^3. Group 2 received 20 μg of peptide DOTA-ABM-5G per mouse as a control. Group 3 received 74 MBq on day 14 post-tumor implant (treatment day 0), and Group 4 received two doses of 37 MBq on day 14 and 21 post-tumor implant (treatment days 0 and 7), at a specific activity of 18.5 MBq/nmol. Body weights and tumor volumes were measured the day before treatment, and twice a week post-treatment throughout the study. Tumor volume (TV) was determined according to the equation TV=(π/6)*L*W*H, where L is the longest axis, W is the axis perpendicular to L and H is perpendicular to the plane of L and W. End point determination was based on the longest axis of TV exceeding 2 cm, active ulceration, or compromised health of the mouse, including >20% loss of body weight from the start of the study. Survival curves are depicted as a Kaplan-Meier plot, using start of treatment as day 0.

Data set [2] has as its target integrin αvβ6 (Homo sapiens, UniProt P06756+P18564). Description: Competitive binding ELISA against biotinylated LAP. Conditions: triplicate, read-out: binding affinity for integrin αvβ6 (IC50).
Data set [3] in a line: In vitro serum stability, human serum. It is filed as in vitro ADME. As to conditions: 2 h, 37° C., read-out: stability in human serum (intact radiotracer). The method, then:
Mouse or human serum (500 μl, both purchased from Millipore Sigma) was combined with an aliquot of the formulated radiotracer (100-200 μCi) and incubated at 37° C. Aliquots (100-200 μl) were drawn for analysis at 1 and 2 h post-incubation for the ^68Ga radiotracers and 1 and 24 h post-incubation for ^177Lu radiotracers, mixed with absolute ethanol (500 μl, 4° C.), and centrifuged (2300× g, 3 min) to precipitate out serum proteins. The supernatant was diluted with HPLC Solvent A and analyzed by radio-HPLC to determine the fraction of intact radiotracer as disclosed in Hausner et al., “In vitro and in vivo evaluation of the effects of aluminum [^18F]fluoride radiolabeling on an integrin αvβ6-specific peptide” Nuclear medicine and biology.

Data set [4] relates to BxPC-3 (αvβ6 (+)) tumors. Description: Biodistribution in mice bearing BxPC-3 tumors. It counts as in vivo. The method, then: as §1
For blocking studies, respective non-chelated cold peptide (30 mg/kg, 10 mg/mL (DOTA-5G) and 48 mg/kg, 16 mg/mL (DOTA-ABM-5G) solution in PBS) was injected 10 min. before the formulated radiotracer. At each time point, the mice (n=3/time point/radiotracer) were anesthetized and sacrificed. The tissues were collected, rinsed with PBS, and the radioactivity of each measured with a gamma counter. Radioactivity concentrations were calibrated, decay-corrected, and expressed as percent of injected dose per gram of tissue (% ID/g).

Data set [5] concerns BxPC-3 tumors. Description: Small animal PET/CT imaging. It counts as in vivo, mice. Here is the method: as §1
For small animal imaging, aliquots of the formulated radiotracer (7.4-9.25 MBq in 100 μl) in PBS solution (pH 7.2) were injected intravenously (i.v.) via a catheter into the tail vein of mice (n=3/time point/radiotracer) anesthetized with 2-3% isoflurane in medical grade oxygen. Animals were imaged two at a time, side by side in a feet-first prone position on the scanner bed. Anesthesia was maintained during the scan at 1.5-2.5% isoflurane in medical-grade oxygen. A static, single-frame 15 min. emission scan was acquired at 1 h, and a 30 min. scan at 2 h post-injection (p.i.) for mice injected with [^68Ga]Ga DOTA-5G. A static 30 min. scan was acquired at 2 h and a 60 min. scan at 4 h p.i. for mice injected with [^68 Ga]Ga DOTA-ABM-5G. 57 Cobalt transmission scans for attenuation correction and CT scans for anatomical reference were also acquired at each time point.

`CC(C)C[C@H](NC(=O)[C@H](CC(=O)O)NC(=O)CNC(=O)[C@H](CCCNC(=N)N)NC(=O)[C@H](CC(C)C)NC(=O)[C@H](CC(N)=O)NC(=O)[C@@H]1CCCN1C(=O)[C@@H](NC(=O)CNC(=O)[C@H](CC(N)=O)NC(=O)CNC(=O)CCOCCOCCOCCOCCOCCOCCOCCOCCOCCOCCOCCOCCOCCOCCOCCOCCOCCOCCOCCOCCOCCOCCOCCOCCOCCOCCOCCOCCNC(=O)[C@H](CCCCNC(=O)[C@H](CC(=O)O)NC(=O)CCCNC(=O)CCCc1ccc(I)cc1)NC(=O)CN1CCN(CC(=O)O)CCN(CC(=O)O)CCN(CC(=O)O)CC1)C(C)C)C(=O)N[C@@H](CCC(N)=O)C(=O)N[C@H](C(=O)N[C@@H](CC(C)C)C(=O)NCC(=O)N[C@@H](CCC(N)=O)C(=O)N[C@@H](CCCNC(=N)N)C(=O)N[C@H](C(=O)NCC(=O)N[C@@H](CCCNC(=N)N)C(=O)N[C@H](C(=O)NCCOCCOCCOCCOCCOCCOCCOCCOCCOCCOCCOCCOCCOCCOCCOCCOCCOCCOCCOCCOCCOCCOCCOCCOCCOCCOCCOCCOCCC(N)=O)[C@@H](C)O)C(C)C)C(C)C` [DOTA-ABM-5G] had a median survival post-treatment in data set [1] (Group 2, peptide control, 20 μg per mouse) of 56 days. Also, in data set [1] (Group 2, peptide control, 20 μg per mouse, from start of treatment), the “time by which all mice had met the end point criterion” value is listed as at most 68 days. The “adverse events and weight loss during the study” value in data set [1] (any group, 120 days) was “No adverse events and weight loss”.
For the molecule `CC(C)C[C@H](NC(=O)[C@H](CC(=O)O)NC(=O)CNC(=O)[C@H](CCCNC(=N)N)NC(=O)[C@H](CC(C)C)NC(=O)[C@H](CC(N)=O)NC(=O)[C@@H]1CCCN1C(=O)[C@@H](NC(=O)CNC(=O)[C@H](CC(N)=O)NC(=O)CNC(=O)CCOCCOCCOCCOCCOCCOCCOCCOCCOCCOCCOCCOCCOCCOCCOCCOCCOCCOCCOCCOCCOCCOCCOCCOCCOCCOCCOCCOCCNC(=O)CN1CCN(CC(=O)O)CCN(CC(=O)O)CCN(CC(=O)O)CC1)C(C)C)C(=O)N[C@@H](CCC(N)=O)C(=O)N[C@H](C(=O)N[C@@H](CC(C)C)C(=O)NCC(=O)N[C@@H](CCC(N)=O)C(=O)N[C@@H](CCCNC(=N)N)C(=O)N[C@H](C(=O)NCC(=O)N[C@@H](CCCNC(=N)N)C(=O)N[C@H](C(=O)NCCOCCOCCOCCOCCOCCOCCOCCOCCOCCOCCOCCOCCOCCOCCOCCOCCOCCOCCOCCOCCOCCOCCOCCOCCOCCOCCOCCOCCC(N)=O)[C@@H](C)O)C(C)C)C(C)C` [DOTA-5G], the IC50 in data set [2] was determined as 35 ± 1 nM.
Turning to `CC(C)C[C@H](NC(=O)[C@H](CC(=O)O)NC(=O)CNC(=O)[C@H](CCCNC(=N)N)NC(=O)[C@H](CC(C)C)NC(=O)[C@H](CC(N)=O)NC(=O)[C@@H]1CCCN1C(=O)[C@@H](NC(=O)CNC(=O)[C@H](CC(N)=O)NC(=O)CNC(=O)CCOCCOCCOCCOCCOCCOCCOCCOCCOCCOCCOCCOCCOCCOCCOCCOCCOCCOCCOCCOCCOCCOCCOCCOCCOCCOCCOCCOCCNC(=O)[C@H](CCCCNC(=O)[C@H](CC(=O)O)NC(=O)CCCNC(=O)CCCc1ccc(I)cc1)NC(=O)CN1CCN(CC(=O)O)CCN(CC(=O)O)CCN(CC(=O)O)CC1)C(C)C)C(=O)N[C@@H](CCC(N)=O)C(=O)N[C@H](C(=O)N[C@@H](CC(C)C)C(=O)NCC(=O)N[C@@H](CCC(N)=O)C(=O)N[C@@H](CCCNC(=N)N)C(=O)N[C@H](C(=O)NCC(=O)N[C@@H](CCCNC(=N)N)C(=O)N[C@H](C(=O)NCCOCCOCCOCCOCCOCCOCCOCCOCCOCCOCCOCCOCCOCCOCCOCCOCCOCCOCCOCCOCCOCCOCCOCCOCCOCCOCCOCCOCCC(N)=O)[C@@H](C)O)C(C)C)C(C)C` [[^68Ga]Ga DOTA-ABM-5G, metal not drawn], in data set [3], the remaining at 2 h came out at 100%. Moreover, in data set [4] (2 h p.i.), the “uptake Blood” value worked out at 8.89±0.89 % ID/g, the “uptake BxPC-3 tumor” value was found to be 9.39±1.9 % ID/g and the “uptake Kidneys” value amounted to 19.62±2.83 % ID/g. Moreover, in data set [4] (2 h p.i., all organs), the “uptake in stomach and intestines as compared to [^68Ga]Ga DOTA-5G” value is listed as at least 4 fold. Besides, in data set [4] (4 h p.i.), the “uptake BxPC-3 tumor” value came out at 10.35±2.6 % ID/g and the “uptake Kidneys” value amounted to 25.92±2.24 % ID/g. The “tumor uptake in PET/CT images compared to [^68Ga]Ga DOTA-5G” value in data set [5] (2 h p.i.) is on record as “significantly higher”. In addition, in data set [5] (all time points (1 and 2 h, or 2 and 4 h p.i.)), the “uptake in the BxPC-3 tumor, imaging and biodistribution” value is given as “evident”. In addition, in data set [5] (especially at 2 h), the “circulation in blood by PET imaging compared to [^68Ga]Ga DOTA-5G” value is recorded as “increased circulation”.
